System: murine myoblast C2C12 cells
Experiment: Osteogenic trans-differentiation of C2C12 cells (ALP stain)
Type: cell-based, mouse
Protocol: Grafts (5×5×1 mm, FlexBone 25% HA-25% TCP) were pre-absorbed with varying amounts of growth factors and cytokines to provide an exogenous supply for remodeling. Grafts loaded with growth factors rhBMP-2, rmRANKL, and rhVEGF165 were analyzed at the respective preferred doses. The preferred loading dose of RANKL (10 ng/FlexBone graft) was determined by the osteoclastic differentiation of macrophage RAW264.7, induced by the RANKL released from the graft as indicated by positive TRAP stains (purple) of multinucleated cells on Day 6. […] The preferred loading dose of rhBMP-2/7 heterodimer (40 ng/FlexBone graft) was determined by the osteogenic differentiation of C2C12 cells induced by the BMP-2/7 released from the graft in culture. […] Finally, the preferred loading dose of rhVEGF165 in stimulating the proliferation of human vascular endothelial cells in culture was determined to be 5 ng/graft.
Osteogenic trans-differentiation of murine myoblast C2C12 cells induced by the rhBMP-2/7 locally released from FlexBone. The bioactivity of the exogenous rhBMP-2/7 released from FlexBone was evaluated by its ability to induce osteogenic trans-differentiation of mouse myoblast C2C12 cells three days after placing the FlexBone graft pre-loaded with rhBMP-2/7 in the low mitogen C2C12 culture. […]

B1: rhBMP-2/7: recombinant protein rhBMP-2/7 heterodimer purchased from R&D Systems (protein, UniProt P12643 283-396; P18075 293-431, looked up)
Bone morphogenetic protein 2: QAKHKQRKRLKSSCKRHPLYVDFSDVGWNDWIVAPPGYHAFYCHGECPFPLADHLNSTNHAIVQTLVNSVNSKIPKACCVPTELSAISMLYLDENEKVVLKNYQDMVVEGCGCR
Bone morphogenetic protein 7: STGSKQRSQNRSKTPKNQEALRMANVAENSSSDQRQACKKHELYVSFRDLGWQDWIIAPEGYAAYYCEGECAFPLNSYMNATNHAIVQTLVHFINPETVPKPCCAPTQLNAISVLYFDDSSNVILKKYRNMVVRACGCH
modifications: heterodimer
notes: recombinant protein rhBMP-2/7 heterodimer purchased from R&D Systems
preferred loading dose (determined by osteogenic differentiation of C2C12 cells): 40 ng/FlexBone graft
osteogenic trans-differentiation of C2C12 (ALP activity) (single dose 40-ng/mL rhBMP-2/7 (20 ng per well), day three): able to induce osteogenic trans-differentiation of C2C12
